Data taken from US11124574B2, “Specific photoimmuno-theranostics for detection and elimination of skin cancer cells” (University of Cape Town, priority 2015, dated 2021).

What was measured:
Experiment in all cases: XTT cell viability assay after light treatment
Assay type in all cases: cell-based, human
[1] = tested on: IGR-39; conditions: light 580-1400 nm
Method: (§1) The human skin epidermoid carcinoma cell line A431 (ATCC: CRL-259), human embryonic kidney (HEK-293T) cell line (ATCC: CRL-11268) and the human melanoma cell line A2058 (ATCC: CRL-11147) were cultured in RPMI-1640 medium. The human melanoma cell line IGR-39 (DSMZ: ACC 239) and IGR-1 (DSMZ: ACC-236) were cultured in DEME medium. All media were supplemented with 2 mM L-glutamine, 10% (v/v) fetal bovine serum (FBS) and 100 U/mL penicillin-streptomycin; the cells were incubated at 37° C. in a 5% CO2 atm. All media and additives were purchased from Life Technologies, Darmstadt, Germany.
(§2) In addition to the in vitro imaging specificity, the phototoxic activity of scFv-SNAP-IR700 and free IR700 were also investigated using cell proliferation and cell apoptosis assays as described previously (9). Briefly, 2×10^4 cells were seeded in 96-well plates and incubated overnight at 37° C. The cells were treated with different concentrations (0, 12.5, 25, 50, 100, 200 and 400) nM of scFv-425-SNAP, IR700 or equivalent concentration of scFv-SNAP-425-IR700 for 3 h at 37° C. in the dark. Toxic control cultures were incubated with 500 μg/mL zeocin instead of the photosensitizer.
(§3) Before light irradiation, cells were washed three times with PBS and fresh phenol red free culture media were added to the cells. Light treatment was performed with a Hydrosun® Typ 750 radiator with a water-containing cuvette and an orange filter OG590, with 140 mW/cm^2, dose: 25 J/cm^2a VIS, 76 J/cm^2 wIRA, exposure time: 15 min, and a spectrum in the range of 580-1400 nm (Hydrosun Medizintechnik GmbH, Mülhelm, Germany). […]
(§4) Cell viability was measured using the cell proliferation kit II (XTT®) (Roche, Mannheim Germany) according to the manufacturer's instructions. […] Cell viability was determined colorimetrically by monitoring the reduction of XTT® to formazan at 450 nm absorbance wavelength and 630 nm reference wavelength using the ELx808 absorbance micro-plate reader (BioTek Instruments GmbH, Bad Friedrichshall, Germany).

[2] = tested on: IGR-1; conditions: light 580-1400 nm
Method: as §1, §2, §3, §4

[3] = tested on: A431; conditions: light 580-1400 nm, 3 h incubation, read 24 h after light
Method: as §1, §2, §3, §4

EC50 [3]: 32 nM
B1: scFv-425-SNAP-IR700: IR700 photosensitizer (via BG-PEG24 linker) conjugated to anti-EGFR single-chain variable fragment scFv-425 fused to SNAP-tag (conjugate)
scFv: MAQVQLQQSGAELVKPGASVKLSCKASGYTFTSHWMHWVKQRAGQGLEWIGEFNPSNGRTNYNEKFKSKATLTVDKSSSTAYMQLSSLTSEDSAVYYCASRDYDYDGRYFDYWGQGTTVTVSSGGGGSGGGGSGGGGSDIELTQSPAIMSASPGEKVTMTCSASSSVTYMYWYQQKPGSSPRLLIYDTSNLASGVPVRFSGSGSGTSYSLTISRMEAEDAATYYCQQWSSHIFTFGSGTELEIKRMDKDCEMKRTTLDSPLGKLELSGCEQGLHEIKLLGKGTSAADAVEVPAPAAVLGGPEPLMQATAWLNAYFHQPEAIEEFPVPALHHPVFQQESFTRQVLWKLLKVVKFGEVISYQQLAALAGNPAATAAVKTALSGNPVPILIPCHRVVSSSGAVGGYEGGLAVKEWLLAHEGHRLGKP
modifications: left off: small tags and cut ends
notes: IR700 photosensitizer (via BG-PEG24 linker) conjugated to anti-EGFR single-chain variable fragment scFv-425 fused to SNAP-tag
EC50 [1]: 55 nM
EC50 [2]: 45 nM
